# Reference: patent US10987430B2, “Di-substituted maleic amide linker for antibody drug conjugating and preparation method and use thereof” (Mabwell (shanghai) Bioscience Co., Ltd., priority 2016, dated 2021)
# Columns and labels:
# [1] = tested on: human gastric cancer NCI-N87 subcutaneous xenografts; assay: In vivo anti-tumor efficacy assay (FIG. 10), IV once a week, 2 times in total; parameters: species or system BALB/cA-nude mice; settings: 2 mg/kg
# Experimental: 6-7 weeks BALB/cA-nude mice (♀) were purchased from Shanghai Lingchang Biotechnology Co., Ltd. Production license number: SCXK (Shanghai) 2013-0018; animal certificate number: 2013001815683; and feeding environment: SPF level.
# Those nude mice were subcutaneously inoculated with human gastric cancer NCI-N87 cells, and then randomly divided into groups (D0) when tumors grew to 100-250 mm^3. Tumor volume was measured 2-3 times a week, the mice were weighed, and corresponding data were recorded. The tumor volume (V) was calculated as: V=½×a×b^2; in which a and b represent length and width respectively. T/C (%)=(T−T0)/(C−C0)×100, in which T and C represent the tumor volumes at the end of the experiment; T0 and C0 represent the tumor volumes at the beginning of the experiment.
# [2] = tested on: BT-474 human breast cancer cells; assay: SRB cell proliferation assay in vitro; format: cell-based
# Source text: (§1) Sulforhodamine B (SRB)-based colorimetric method was used in this Example to evaluate the anti-proliferative effect of the drugs. SRB is a pink anionic dye which is easily soluble in water and can specifically bind to basic amino acids making up proteins in cells under an acidic condition. It provides an absorption peak at 510 nm, and the absorbance is linearly and positively correlated with the amount of cells. In this regard, the method can be used in a quantitative detection of cell number.
# (§2) BT-474, SK-BR-3 and NCI-N87 cells in RPMI 1640 medium containing 10% fetal bovine serum, SKOV-3, Du-145, Panc-1, MCF-7 and MDA-MB-231 cells in DMEM containing 10% fetal bovine serum, and MDA-MB-468 cells in DMEM/F12 containing 10% fetal bovine serum were incubated to logarithmic growth phase in a 5% CO2 incubator at 37° C. The above cells in the logarithmic growth phase were inoculated into 96-well plates at a density of 2×10^3 to 9×10^3 cells per well, 100 μL per well, cultured for 24 hours and then different concentrations of drugs were added thereto for 5 days. Specifically, each drug was prepared into nine concentrations by diluting in 3, 4 or 5-fold, each concentration was set in duplicate wells, and corresponding concentration of vehicle control wells and medium control wells without cells were set too. At the end of drug action, culture solutions were decanted, and 100 μl of a pre-cooled trichloroacetic acid solution (30%, w/v) at 4° C. was added to each well and the cells were fixed at 4° C. for 1 hour. Subsequently, the cells were washed with deionized water for 5 times, and dried at room temperature, and then 100 μL of 0.4% (w/v) SRB dye (Sigma, prepared with 1% glacial acetic acid) was added to each well. After being incubated and stained at room temperature for 30 minutes, the cells were washed with 1% glacial acetic acid for 4 times to remove unbound dyes, and then dried at room temperature. Afterwards, 100 μL of 10 mM Tris solution was added per well. After being incubated and stained at room temperature for 15 minutes, the cells was washed with 1% glacial acetic acid for 5 times to remove unbound SRB, and then dried at room temperature. Dyes bound to the proteins in cells were dissolved by addition of 10 mM Tris buffer (pH=10.5) per well, and the absorbance (OD value) was measured at wavelengths of 510 nm and 690 nm using Synergy 2 Microplate Reader (Bio-Tek). A=OD510−OD690. Inhibition rate (%)=(Acontrol−Adrug)/Acontrol×100%
# (§3) Sulforhodamine B (SRB)-based colorimetric method was used in this Example to evaluate the anti-proliferative effect of the drugs. […] It provides an absorption peak at 510 nm, and the absorbance is linearly and positively correlated with the amount of cells. In this regard, the method can be used in a quantitative detection of cell number. […]
# [3] = tested on: NCI-N87 human gastric cancer cells; assay: SRB cell proliferation assay in vitro; format: cell-based
# Source text: as §1, §2, §3
# [4] = tested on: SK-BR-3 human breast cancer cells; assay: SRB cell proliferation assay in vitro; format: cell-based; settings: SK-BR-3, Her2 highly expressing, 5 days, FIG. 4
# Source text: as §1
# BT-474, SK-BR-3 and NCI-N87 cells in RPMI 1640 medium containing 10% fetal bovine serum, SKOV-3, Du-145, Panc-1, MCF-7 and MDA-MB-231 cells in DMEM containing 10% fetal bovine serum, and MDA-MB-468 cells in DMEM/F12 containing 10% fetal bovine serum were incubated to logarithmic growth phase in a 5% CO2 incubator at 37° C. The above cells in the logarithmic growth phase were inoculated into 96-well plates at a density of 2×10^3 to 9×10^3 cells per well, 100 μL per well, cultured for 24 hours and then different concentrations of drugs were added thereto for 5 days. […] Dyes bound to the proteins in cells were dissolved by addition of 10 mM Tris buffer (pH=10.5) per well, and the absorbance (OD value) was measured at wavelengths of 510 nm and 690 nm using Synergy 2 Microplate Reader (Bio-Tek). […]
Substance,tumor inhibition rate [1] [%],"inhibition of tumor cell proliferation ([2]; BT-474, Her2 highly expressing, 5 days, FIG. 5)","inhibition of tumor cell proliferation ([3]; NCI-N87, Her2 highly expressing, 5 days, FIG. 6, FIG. 9-1)",inhibition of tumor cell proliferation [4],"IC50 ([2]; BT-474, 120 h) [mg/L]","IC50 ([3]; NCI-N87, 120 h) [mg/L]"
Kadcyla: ADC drug developed by Genentech for the treatment of breast cancer; reference drug,77,significant inhibition of tumor cell proliferation,significant inhibition of tumor cell proliferation,significant inhibition of tumor cell proliferation,–,–
"Herceptin: HER2 antibody, naked antibody",–,–,–,–,0.0986,0.440
